Antibody variant affinities, Ab-14 heavy chain, assay B

Target: peptide PDVDLGDISGINAS, taken from heptad repeat 2 (HR2) of SARS-CoV-2 spike.

Each scFv is VH, a 15-residue (Gly4Ser)3 linker, VL, as in the parent Ab-14, and differs from it in the CDRs of the heavy chain only.
VH: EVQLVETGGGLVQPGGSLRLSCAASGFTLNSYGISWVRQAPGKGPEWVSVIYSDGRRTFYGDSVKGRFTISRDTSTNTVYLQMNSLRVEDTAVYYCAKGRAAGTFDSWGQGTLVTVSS
VL: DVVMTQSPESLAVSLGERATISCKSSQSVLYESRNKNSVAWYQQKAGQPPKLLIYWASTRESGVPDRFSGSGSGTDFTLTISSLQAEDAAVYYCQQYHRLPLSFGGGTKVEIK

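Phage display of a naive human antibody library on the peptide gave the parent. These sequences belong to a second round, designed from the earlier measurements on random variants of the parent. Several design methods are mixed in this list. The assay is AlphaSeq: two haploid yeast populations carry antibody and antigen on their surface. The frequency of each diploid, read from paired DNA barcodes, reflects how well the two displayed proteins bind. Each replicate has its own calibration line, from reference interactions of the BCL2 family. Mating was done six times.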

Changes read parent residue, position, new residue, counted from the first residue of the VH shown.
Variants here have at most six changes.
The read-out is the apparent dissociation constant on a log10 scale (nM): the lower, the stronger.
The mean shown is taken over the replicates in which the pair was detected.
An entry "no signal" has no value in the source: the pair was not observed among the diploids in any replicate. This suggests poor binding but is not conclusive.
Of ten entries with the parent sequence, four were seen in most replicates (averages 0.34 to 2.37), three in one and three in none, so single entries are noisy.

- S31Q/F59P/G61S/T104F/F105Q -> no signal (0 of 6 replicates; controls 0 of 18)
- T28D/G61Q/R100K/A101Q -> 1.26 (6 of 6 replicates; controls 0 of 18)
- S31E/G61T/A101F/S107L -> 0.58 (6 of 6 replicates; controls 0 of 18)
- S35H/D54T/G61T -> no signal (0 of 6 replicates; controls 0 of 18)
- T28N/S31E/S53A/G61A/R100Q/A101I -> -0.58 (6 of 6 replicates; controls 0 of 18)
- T28D/S31R/G55E/S63P/T104W/D106N -> no signal (0 of 6 replicates; controls 0 of 18)
- T28N/G61I/R100W/A101V -> 1.39 (5 of 6 replicates; controls 0 of 18)
- S31E/G61L/G103V/S107Q -> no signal (0 of 6 replicates; controls 0 of 18)
- T28S/S31E/S63A/A101T/D106W -> no signal (0 of 6 replicates; controls 0 of 18)
- T28E/G61H/R100E -> 0.62 (6 of 6 replicates; controls 1 of 18)
- T28H/R100E -> 0.94 (5 of 6 replicates; controls 0 of 18)
- G26H/T28D/G61I/R100N -> 0.80 (6 of 6 replicates; controls 0 of 18)
- S31D/I34A/G103L/D106I -> no signal (0 of 6 replicates; controls 0 of 18)
- T28E/G61I/S63D/R100N -> 0.37 (6 of 6 replicates; controls 1 of 18)
- S53A/R57M/A102I/F105N/D106K -> no signal (0 of 6 replicates; controls 0 of 18)
- R100A/S107V -> 2.08 (5 of 6 replicates; controls 1 of 18)
- S31E/R56T/S63P/G103V/F105P/S107Q -> no signal (0 of 6 replicates; controls 0 of 18)
- G61S/R100Q/A101L/S107T -> 0.12 (6 of 6 replicates; controls 0 of 18)
- Y60M/G99N -> no signal (0 of 6 replicates; controls 0 of 18)
- G26S/T28D/R100Q/A101T -> 1.84 (6 of 6 replicates; controls 0 of 18)
- S31Q/S63E/A101S -> no signal (0 of 6 replicates; controls 0 of 18)
- L29I/F59A/G61Q/A102P -> 2.75 (5 of 6 replicates; controls 5 of 18)
- T28G/G61S/S63A/R100K -> 0.74 (6 of 6 replicates; controls 0 of 18)
- S31Q/R56W/G61S/D106T -> 1.90 (1 of 6 replicates; controls 1 of 18)
- T28A/S31E/F59W/A101T -> 1.72 (2 of 6 replicates; controls 0 of 18)
- T28S/A101Q -> 1.14 (10 of 12 replicates; controls 0 of 36)
- L29V/N30G/Y32Q/R56K -> no signal (0 of 6 replicates; controls 0 of 18)
- T28E/R100H -> 1.47 (6 of 6 replicates; controls 1 of 18)
- S31E/F59A/G61S/R100K -> -0.58 (6 of 6 replicates; controls 1 of 18)
- T28Q/S31E/G61H -> 0.62 (6 of 6 replicates; controls 1 of 18)
- T28N/G61S/T104F -> 2.04 (5 of 6 replicates; controls 1 of 18)
- S31Q/Y32H/G61S/V64D/T104F -> no signal (0 of 6 replicates; controls 0 of 18)
- T28A/G99C/R100Y -> no signal (0 of 6 replicates; controls 0 of 18)
- G61D/G103L -> no signal (0 of 6 replicates; controls 0 of 18)
- T28E/S31E/G103D/S107Q -> no signal (0 of 6 replicates; controls 0 of 18)
- G61D/R100Q/A101S/A102I -> no signal (0 of 6 replicates; controls 1 of 18)
- T28Q/S31E/A101T/S107W -> -0.04 (6 of 6 replicates; controls 1 of 18)
- T28D/S63M/A101T/S107M -> 0.82 (6 of 6 replicates; controls 0 of 18)

The authors averaged sequences with at least three values out of six and counted those with two or fewer as poor binders.
The range of this assay differs from that of the first round, and the authors advise against merging the two.
Where one sequence has several entries in the source, the replicates are pooled.
Empty control strains, which show no peptide, gave a signal in 1% of pairings with all heavy chain designs; the median was 2.08 and 95% of these signals were weaker than 0.84. No background was subtracted. Also given: how often the same scFv was detected with the empty control strains.

From the AlphaSeq antibody data of Li et al. 2023 (doi:10.1038/s41467-023-39022-2), copy in the FLAb collection.